Data reported in patent US12692247B2, “Phenyl- and pyridopyrazole derivatives as inhibitors of DDR1” (Redx Pharma Limited, priority 2021, dated 2026).

Protein sequences, listed by entry. Tags and fused reporters are not part of them. Residues count along the entry.
UniProt Q16832, 427-855 limits assumed: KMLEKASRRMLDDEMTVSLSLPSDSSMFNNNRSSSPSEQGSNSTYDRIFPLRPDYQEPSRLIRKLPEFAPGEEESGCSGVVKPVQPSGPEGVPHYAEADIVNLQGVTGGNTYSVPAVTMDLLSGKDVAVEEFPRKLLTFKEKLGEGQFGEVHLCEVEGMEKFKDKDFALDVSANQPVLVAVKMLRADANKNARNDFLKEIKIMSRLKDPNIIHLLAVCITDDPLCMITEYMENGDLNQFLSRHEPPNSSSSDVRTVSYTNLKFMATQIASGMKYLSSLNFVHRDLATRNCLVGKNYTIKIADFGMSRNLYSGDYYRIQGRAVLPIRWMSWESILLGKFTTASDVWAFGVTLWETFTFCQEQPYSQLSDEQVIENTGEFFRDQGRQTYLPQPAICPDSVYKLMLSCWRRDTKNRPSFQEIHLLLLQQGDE
UniProt Q08345, 440-876 isoform 2 limits assumed: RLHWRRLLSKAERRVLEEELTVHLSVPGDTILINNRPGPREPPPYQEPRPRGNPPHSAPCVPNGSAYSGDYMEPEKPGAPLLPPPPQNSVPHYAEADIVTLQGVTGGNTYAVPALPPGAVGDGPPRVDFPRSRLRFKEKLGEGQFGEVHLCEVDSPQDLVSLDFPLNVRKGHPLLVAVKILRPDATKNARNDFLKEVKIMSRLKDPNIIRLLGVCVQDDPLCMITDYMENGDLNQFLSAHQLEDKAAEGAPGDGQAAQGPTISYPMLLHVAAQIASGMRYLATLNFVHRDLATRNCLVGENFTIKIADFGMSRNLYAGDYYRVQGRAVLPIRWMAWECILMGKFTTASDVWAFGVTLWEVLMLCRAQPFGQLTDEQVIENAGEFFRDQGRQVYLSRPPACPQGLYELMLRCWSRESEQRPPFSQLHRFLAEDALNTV

What was measured:
Recombinant human DDR2 = Recombinant human DDR2 (Homo sapiens, UniProt Q16832); assay: LanthaScreen Eu Kinase Binding Assay, DDR2; conditions: recombinant human DDR2 (1.75 nM; aa427-855, GST tag), Kinase Tracer 178 10 nM, time-resolved fluorescence, at least two independent replicates
Recombinant human DDR1 = Recombinant human DDR1 (Homo sapiens, UniProt Q08345); assay: LanthaScreen Eu Kinase Binding Assay, DDR1; conditions: recombinant human DDR1 (2.5 nM; aa440-876, GST tag), Kinase Tracer 178 5 nM, time-resolved fluorescence, at least two independent replicates

SMILES | DDR2 pIC50 (Recombinant human DDR2) | DDR1 pIC50 (Recombinant human DDR1)
Cn1ncc2cc(Nc3cccc4ccn(CC(=O)N5CCC(C(C)(C)O)C5)c(=O)c34)ccc21 (centres unmarked) | C (7≥pIC50>6) | C (7≥pIC50>6)
Cn1ncc2cc(Nc3cccc4ccn(CC(=O)N5CCCC5CC(C)(C)O)c(=O)c34)ccc21 (centres unmarked) | D (pIC50≤6) | C (7≥pIC50>6)
CN(c1ccc2c(cnn2C)c1)c1cccc2ccn(CC(=O)Nc3cccc(C(C)(C)O)c3)c(=O)c12 | C (7≥pIC50>6) | B (8≥pIC50>7)
O=C(Cn1ccc2cccc(Nc3cnc4[nH]ncc4c3)c2c1=O)Nc1cnoc1 | C (7≥pIC50>6) | B (8≥pIC50>7)
Cc1n[nH]c2cc(Nc3cccc4ccn(CC(=O)N[C@@H](C)C(F)(F)F)c(=O)c34)ccc12 | B (8≥pIC50>7) | A (pIC50>8)
O=C(Cn1ccc2cccc(Nc3ccc4[nH]nc(C(F)(F)F)c4c3)c2c1=O)NCC(F)(F)F | D (pIC50≤6) | D (pIC50≤6)
Cc1n[nH]c2cc(N(C)c3cccc4ccn(CC(=O)NCC(F)(F)F)c(=O)c34)ccc12 | C (7≥pIC50>6) | B (8≥pIC50>7)
Cn1ncc2cc(Nc3c(F)ccc4ccn(CC(=O)N5CCC[C@H]5C(F)(F)F)c(=O)c34)ccc21 | B (8≥pIC50>7) | A (pIC50>8)
C[C@H](NC(=O)Cn1ccc2ccc(F)c(Nc3ccc4c(cnn4C)c3)c2c1=O)C(F)(F)F | B (8≥pIC50>7) | A (pIC50>8)
Cn1ncc2cc(Nc3cccc4ccn(CC(=O)Nc5cccc(C(C)(C)O)c5)c(=O)c34)cnc21 | C (7≥pIC50>6) | B (8≥pIC50>7)
Cc1n[nH]c2cc(Nc3c(F)ccc4ccn(CC(=O)NCC(F)(F)F)c(=O)c34)ccc12 | B (8≥pIC50>7) | A (pIC50>8)
CC(C)(O)c1cccc(NC(=O)Cn2ccc3cccc(Nc4cnc5[nH]ncc5c4)c3c2=O)c1 | C (7≥pIC50>6) | A (pIC50>8)
O=C(Cn1ccc2cccc(Nc3cnc4[nH]ncc4c3)c2c1=O)N1CCC[C@H]1C(F)(F)F | C (7≥pIC50>6) | B (8≥pIC50>7)
Cc1cc(Nc2cccc3ccn(CC(=O)N4CCC[C@H]4C(F)(F)F)c(=O)c23)cc2cn[nH]c12 | B (8≥pIC50>7) | A (pIC50>8)
Cn1ncc2cc(Nc3cccc4ccn(CC(=O)N5CCC(C)(O)CC5)c(=O)c34)ccc21 | D (pIC50≤6) | C (7≥pIC50>6)
Cc1n[nH]c2cc(Nc3cccc4ccn(CC(=O)N5CCC[C@H]5C(F)(F)F)c(=O)c34)ccc12 | B (8≥pIC50>7) | A (pIC50>8)
N#Cc1cc(Nc2cccc3ccn(CC(=O)N4CCC[C@H]4C(F)(F)F)c(=O)c23)cc2cn[nH]c12 | B (8≥pIC50>7) | A (pIC50>8)
Cn1ncc2cc(Nc3cccc4ccn(CC(=O)N5CCC[C@H]5C(F)(F)F)c(=O)c34)cc(F)c21 | B (8≥pIC50>7) | A (pIC50>8)
Cn1ncc2cc(Nc3c(F)ccc4ccn(CC(=O)Nc5cccc(C(C)(C)O)c5)c(=O)c34)ccc21 | B (8≥pIC50>7) | A (pIC50>8)
Cn1ncc2cc(Nc3cccc4ccn(CC(=O)N5CCC(C(C)(C)O)CC5)c(=O)c34)ccc21 | D (pIC50≤6) | C (7≥pIC50>6)
O=C(Cn1ccc2cccc(Nc3ccc4[nH]ncc4c3)c2c1=O)Nc1cccc(C(F)(F)F)c1 | B (8≥pIC50>7) | B (8≥pIC50>7)
O=C(Cn1ccc2cccc(Nc3cc(Cl)c4[nH]ncc4c3)c2c1=O)N1CCC[C@H]1C(F)(F)F | B (8≥pIC50>7) | A (pIC50>8)
O=C(Cn1ccc2cccc(Nc3cnc4[nH]ncc4c3)c2c1=O)Nc1cccc(C(F)(F)F)c1 | D (pIC50≤6) | B (8≥pIC50>7)
Cn1ncc2cc(Nc3cccc4ccn(CC(=O)Nc5cccc(C(F)(F)F)c5)c(=O)c34)ccc21 | B (8≥pIC50>7) | B (8≥pIC50>7)
Cc1n[nH]c2cc(Nc3cccc4ccn(CC(=O)Nc5cccc(C(C)(C)O)c5)c(=O)c34)ccc12 | B (8≥pIC50>7) | A (pIC50>8)
Cn1ncc2cc(Nc3cccc4ccn(CC(=O)Nc5cncc(C(C)(C)O)c5)c(=O)c34)ccc21 | B (8≥pIC50>7) | B (8≥pIC50>7)
COc1cccc(NC(=O)Cn2ccc3cccc(Nc4ccc5c(cnn5C)c4)c3c2=O)c1 | B (8≥pIC50>7) | A (pIC50>8)
Cn1ncc2cc(Nc3c(F)ccc4ccn(CC(=O)Nc5cccc(C(F)(F)F)c5)c(=O)c34)ccc21 |  | B (8≥pIC50>7)
CN(c1cc(F)c2[nH]ncc2c1)c1cccc2ccn(CC(=O)N3CCC[C@H]3C(F)(F)F)c(=O)c12 | B (8≥pIC50>7) | B (8≥pIC50>7)

The remaining lines, values ahead:

DDR2 pIC50 (Recombinant human DDR2) | DDR1 pIC50 (Recombinant human DDR1) | SMILES
B (8≥pIC50>7) | A (pIC50>8) | O=C(Cn1ccc2cccc(Nc3cc(C(F)(F)F)c4[nH]ncc4c3)c2c1=O)NCC(F)(F)F
C (7≥pIC50>6) | A (pIC50>8) | Cn1ncc2cc(Nc3cccc4ccn(CC(=O)NCC(F)(F)F)c(=O)c34)cc(Cl)c21
C (7≥pIC50>6) | B (8≥pIC50>7) | Cc1n[nH]c2cc(Nc3cccc4ccn(CC(=O)NCC(F)(F)F)c(=O)c34)cc(F)c12
D (pIC50≤6) | D (pIC50≤6) | Cc1nc2[nH]ncc2cc1Nc1cccc2ccn(CC(=O)NCC(F)(F)F)c(=O)c12
D (pIC50≤6) | D (pIC50≤6) | Cn1ncc2c(C#N)cc(Nc3cccc4ccn(CC(=O)NCC(F)(F)F)c(=O)c34)cc21
C (7≥pIC50>6) | C (7≥pIC50>6) | Cn1ncc2cc(Nc3cccc4ccn(CC(=O)NCC(F)(F)F)c(=O)c34)cnc21
D (pIC50≤6) | C (7≥pIC50>6) | O=C(Cn1ccc2cccc(Nc3cnc4[nH]ncc4c3)c2c1=O)NCC(F)(F)F
D (pIC50≤6) | B (8≥pIC50>7) | COc1cc(Nc2cccc3ccn(CC(=O)NCC(F)(F)F)c(=O)c23)cc2cn[nH]c12
D (pIC50≤6) | C (7≥pIC50>6) | CC(C)(O)c1cc(Nc2cccc3ccn(CC(=O)NCC(F)(F)F)c(=O)c23)cc2cn[nH]c12
B (8≥pIC50>7) | A (pIC50>8) | Cn1ncc2cc(Nc3c(F)ccc4ccn(CC(=O)NCC(F)(F)F)c(=O)c34)cc(Cl)c21
C (7≥pIC50>6) | B (8≥pIC50>7) | Cn1ncc2cc(Nc3c(F)ccc4ccn(CC(=O)NCC(F)(F)F)c(=O)c34)cnc21
B (8≥pIC50>7) | A (pIC50>8) | COC(=O)c1cc(Nc2cccc3ccn(CC(=O)NCC(F)(F)F)c(=O)c23)cc2cn[nH]c12
C (7≥pIC50>6) | B (8≥pIC50>7) | Cc1cc(Nc2cccc3ccn(CC(=O)NCC(F)(F)F)c(=O)c23)cc2[nH]ncc12
C (7≥pIC50>6) | B (8≥pIC50>7) | Cn1ncc2cc(Nc3ccc(F)c4ccn(CC(=O)NCC(F)(F)F)c(=O)c34)ccc21
C (7≥pIC50>6) | B (8≥pIC50>7) | NC(=O)c1cc(Nc2cccc3ccn(CC(=O)NCC(F)(F)F)c(=O)c23)cc2cn[nH]c12
D (pIC50≤6) |  | CN(C)c1cc(Nc2cccc3ccn(CC(=O)NCC(F)(F)F)c(=O)c23)cc2cnn(C)c12

DDR2 pIC50 (Recombinant human DDR2) | DDR1 pIC50 (Recombinant human DDR1) | SMILES
C (7≥pIC50>6) | A (pIC50>8) | CCc1cc(Nc2cccc3ccn(CC(=O)NCC(F)(F)F)c(=O)c23)cc2cn[nH]c12
D (pIC50≤6) | C (7≥pIC50>6) | Cc1n[nH]c2cc(Nc3cccc4ccn(CC(=O)NCC(F)(F)F)c(=O)c34)cnc12
C (7≥pIC50>6) | B (8≥pIC50>7) | CC(C)c1cc(Nc2cccc3ccn(CC(=O)NCC(F)(F)F)c(=O)c23)cc2cn[nH]c12
D (pIC50≤6) | B (8≥pIC50>7) | N#Cc1cc(Nc2cccc3ccn(CC(=O)NCC(F)(F)F)c(=O)c23)cc2[nH]ncc12
D (pIC50≤6) | C (7≥pIC50>6) | Cn1ncc2cc(Nc3cccc4ccn(C(F)C(=O)NCC(F)(F)F)c(=O)c34)ccc21 (centres unmarked)
D (pIC50≤6) | D (pIC50≤6) | Cc1n[nH]c2ccc(Nc3cccc4ccn(CC(=O)NCC(F)(F)F)c(=O)c34)cc12
C (7≥pIC50>6) | B (8≥pIC50>7) | Cc1n[nH]c2cc(Nc3cccc4ccn(CC(=O)NCC(F)(F)F)c(=O)c34)ccc12
B (8≥pIC50>7) | A (pIC50>8) | O=C(Cn1ccc2cccc(Nc3cc(F)c4[nH]ncc4c3)c2c1=O)NCC(F)(F)F
D (pIC50≤6) | D (pIC50≤6) | Cn1ncc2ccc(Nc3cccc4ccn(CC(=O)NCC(F)(F)F)c(=O)c34)cc21
B (8≥pIC50>7) | A (pIC50>8) | N#Cc1cc(Nc2cccc3ccn(CC(=O)NCC(F)(F)F)c(=O)c23)cc2cn[nH]c12
D (pIC50≤6) | C (7≥pIC50>6) | O=C(Cn1ccc2cccc(Nc3cnc4cn[nH]c4c3)c2c1=O)NCC(F)(F)F
B (8≥pIC50>7) | B (8≥pIC50>7) | Cn1ncc2cc(Nc3c(F)ccc4ccn(CC(=O)NCC(F)(F)F)c(=O)c34)ccc21
C (7≥pIC50>6) | C (7≥pIC50>6) | Cc1cc2[nH]ncc2cc1Nc1cccc2ccn(CC(=O)NCC(F)(F)F)c(=O)c12
B (8≥pIC50>7) | A (pIC50>8) | O=C(Cn1ccc2cccc(Nc3cc(C4CC4)c4[nH]ncc4c3)c2c1=O)NCC(F)(F)F
D (pIC50≤6) | D (pIC50≤6) | Cn1ncc2ncc(Nc3cccc4ccn(CC(=O)NCC(F)(F)F)c(=O)c34)cc21
 | A (pIC50>8) | O=C(Cn1ccc2cccc(Nc3cc([N+](=O)[O-])c4[nH]ncc4c3)c2c1=O)NCC(F)(F)F
